The values that follow come from patent US9895439B2, “Combined treatment with netrin-1 interfering drug and chemotherapeutic drug” (NETRIS PHARMA, priority 2012, dated 2018).

SMILES strings stand for the structures.

The assay relates to Netrin-1 (NTN1) expression in panel of 15 cancer cell lines. The settings on record: drug at IC10, IC30, IC50 or ICMAX, 24 hours.
For `O=c1[nH]cc(F)c(=O)[nH]1` [5FU, 5-Fluorouracil], the “cancer cell lines with significant (>2 fold over control) increase of netrin-1” value came to 36%.
For the compound `N.N.[Cl][Pt][Cl]` [Cisplatin], the “cancer cell lines with significant (>2 fold over control) increase of netrin-1” value was 21%.
The value for `COc1cccc2c1C(=O)c1c(O)c3c(c(O)c1C2=O)C[C@@](O)(C(=O)CO)C[C@@H]3O[C@H]1C[C@H](N)[C@H](O)[C@H](C)O1` [Doxorubicin] was 60%; that for `CC(=O)O[C@H]1C(=O)[C@@]2(C)[C@H]([C@H](OC(=O)c3ccccc3)[C@]3(O)C[C@H](OC(=O)[C@H](O)[C@@H](NC(=O)c4ccccc4)c4ccccc4)C(C)=C1C3(C)C)[C@]1(OC(C)=O)CO[C@@H]1C[C@@H]2O` [Taxol, paclitaxel] was 20%.
